IC50 data for one compound are collected here from ChEMBL document CHEMBL4190276, “Design, synthesis and evaluation of coumarin-pargyline hybrids as novel dual inhibitors of monoamine oxidases and amyloid-β aggregation for the treatment of Alzheimer's disease” (Eur J Med Chem, 2017).

The chains behind the UniProt entries cited, without tags or fusion partners.
UniProt P21397, whole entry: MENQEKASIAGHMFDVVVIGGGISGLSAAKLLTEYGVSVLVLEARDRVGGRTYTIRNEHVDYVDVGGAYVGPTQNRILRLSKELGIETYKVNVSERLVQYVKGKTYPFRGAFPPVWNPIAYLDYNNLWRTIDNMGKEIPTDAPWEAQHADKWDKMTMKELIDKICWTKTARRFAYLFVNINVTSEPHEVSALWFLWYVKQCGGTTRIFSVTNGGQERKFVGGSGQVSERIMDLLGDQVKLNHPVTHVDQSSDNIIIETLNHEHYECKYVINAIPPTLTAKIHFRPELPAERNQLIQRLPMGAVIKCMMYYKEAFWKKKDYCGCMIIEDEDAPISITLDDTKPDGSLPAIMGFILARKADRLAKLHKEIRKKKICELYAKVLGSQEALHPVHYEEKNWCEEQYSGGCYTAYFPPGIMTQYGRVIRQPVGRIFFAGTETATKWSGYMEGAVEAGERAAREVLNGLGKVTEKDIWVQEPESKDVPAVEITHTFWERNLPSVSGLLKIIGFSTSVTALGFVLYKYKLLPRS

Test [1] has as its target T1, Amine oxidase [flavin-containing] A (Homo sapiens, UniProt P21397). Kind of test: Inhibition of recombinant human MAO-A using p-tyramine as substrate preincubated for 15 mins followed by substrate addition measured after 20 mins by amplex red reagent based fluorescence assay.
Test [2] deals with T1, Amine oxidase [flavin-containing] A.

For the compound `C#CCN(C)Cc1ccccc1` [PARGYLINE], the IC50 was 3.52 µM in test [1] and 0.0115 µM in test [2].

What is called IC50 is the concentration at which inhibition is half-maximal.
